{"sequences": {"note": "Protein sequences, listed by entry. Tags and fused reporters are not part of them. Lines headed by an entry give the natural chain unless they say otherwise; changes in a name come on top.", "UniProt P08842": "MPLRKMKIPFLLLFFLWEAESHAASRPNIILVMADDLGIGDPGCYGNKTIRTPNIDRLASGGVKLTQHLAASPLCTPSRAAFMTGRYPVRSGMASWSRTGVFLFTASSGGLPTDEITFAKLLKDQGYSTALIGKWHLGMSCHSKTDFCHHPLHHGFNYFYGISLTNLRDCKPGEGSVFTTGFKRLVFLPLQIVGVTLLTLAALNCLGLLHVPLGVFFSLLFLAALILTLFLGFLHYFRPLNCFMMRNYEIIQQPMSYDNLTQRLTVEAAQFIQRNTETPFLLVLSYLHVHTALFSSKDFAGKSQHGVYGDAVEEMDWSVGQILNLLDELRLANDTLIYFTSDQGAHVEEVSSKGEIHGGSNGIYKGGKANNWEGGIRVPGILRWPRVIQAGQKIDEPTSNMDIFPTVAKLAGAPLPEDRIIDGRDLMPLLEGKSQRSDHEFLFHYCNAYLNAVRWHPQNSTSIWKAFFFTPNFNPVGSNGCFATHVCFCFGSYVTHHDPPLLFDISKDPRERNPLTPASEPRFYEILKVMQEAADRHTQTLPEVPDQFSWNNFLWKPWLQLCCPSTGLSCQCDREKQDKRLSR"}, "source": "ChEMBL document CHEMBL5335823", "about": "“Synthesis, biological evaluation, and stability studies of raloxifene mono- and bis-sulfamates as dual-targeting agents” (Bioorg Med Chem, 2024)", "biological_target": "Steryl-sulfatase (Homo sapiens, UniProt P08842)", "assay": "Inhibition of STS in human JEG-3 cells assessed as inhibition of estrone E1 formation using [3H]estrone sulfate as substrate at 50 to 100 uM incubated for 20 hrs in presence of E1S by scintillation spectrometry", "assay_type": "cell-based", "details": "dose 50-100 µM", "data": [{"smiles": "O=C(c1ccc(OCCN2CCCCC2)cc1)c1c(-c2ccc(O)cc2)sc2cc(O)ccc12", "values": [{"measurement": "inhibition", "value": 20, "unit": "%"}]}]}
